Test: in vivo
Details: mouse, iv

NC[C@@H]1CC[C@@H](N)[C@@H](O[C@H]2[C@H](O)[C@@H](O[C@H]3O[C@H](CO)[C@@H](O)[C@H](N)[C@H]3O)[C@H](N)C[C@@H]2N)O1 [DKB, 3',4'-dideoxykanamycin B]
LD50: 100 to 120 mg/kg

From patent US4091202A, “N-methanesulfonic acid derivatives of 3',4'-dideoxykanamycin B” (Zaidan Hojin Biseibutsu Kagaku Kenkyu Kai, priority 1975, dated 1978)
